Patent publication US11278522B2, “Use of methadone metabolites for treatment of anxiety and depression” (Georgetown University, priority 2015, dated 2022)

Sequences of proteins named here, by UniProt entry; tags and fusion partners are left off. Residues count along the entry.
UniProt P30926, 22-498: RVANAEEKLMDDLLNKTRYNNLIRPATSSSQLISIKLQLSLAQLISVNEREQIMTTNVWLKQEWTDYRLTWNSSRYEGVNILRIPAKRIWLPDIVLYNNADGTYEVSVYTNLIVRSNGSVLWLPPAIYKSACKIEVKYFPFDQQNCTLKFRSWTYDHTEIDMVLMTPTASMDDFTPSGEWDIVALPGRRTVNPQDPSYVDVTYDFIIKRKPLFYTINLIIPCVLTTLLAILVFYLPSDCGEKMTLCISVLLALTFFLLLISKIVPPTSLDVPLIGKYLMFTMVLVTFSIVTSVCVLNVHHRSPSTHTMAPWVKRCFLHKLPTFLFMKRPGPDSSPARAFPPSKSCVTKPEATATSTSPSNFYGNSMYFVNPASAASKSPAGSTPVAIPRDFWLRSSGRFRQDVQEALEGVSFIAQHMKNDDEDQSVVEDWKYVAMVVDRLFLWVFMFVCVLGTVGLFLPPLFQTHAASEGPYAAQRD
UniProt P32297, 32-505: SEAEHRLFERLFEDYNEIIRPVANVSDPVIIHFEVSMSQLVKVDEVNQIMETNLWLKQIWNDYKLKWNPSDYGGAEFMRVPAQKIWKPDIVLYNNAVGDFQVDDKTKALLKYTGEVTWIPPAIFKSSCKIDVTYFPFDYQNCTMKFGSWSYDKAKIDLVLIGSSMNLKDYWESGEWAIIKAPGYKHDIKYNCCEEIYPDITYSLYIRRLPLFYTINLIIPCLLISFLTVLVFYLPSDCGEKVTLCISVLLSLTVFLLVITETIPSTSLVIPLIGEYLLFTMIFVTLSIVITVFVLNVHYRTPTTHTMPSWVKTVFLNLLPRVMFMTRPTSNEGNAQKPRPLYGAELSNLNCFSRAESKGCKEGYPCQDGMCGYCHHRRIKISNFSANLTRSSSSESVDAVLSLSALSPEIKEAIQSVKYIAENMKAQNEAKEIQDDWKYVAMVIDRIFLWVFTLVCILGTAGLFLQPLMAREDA

Molecular target: T1, human α3β4 nAChRs (Homo sapiens, UniProt P30926+P32297)
T1 construct: expressed in transfected cells
Assay: 86Rb+ efflux assay, inhibition of nicotine-stimulated efflux, α3β4 nAChRs
Assay type: cell-based
Conditions: 86Rb+ efflux stimulated by 100 μM nicotine; HEK cells YXα3β4H1; mean ± standard error
Protocol: Stable cell lines and ^86Rb^+ efflux Assay. The cell lines expressing human α4β2 (YXα4β2H1) and α3β4 (YXα3β4H1) nAChRs were established recently (Xiao el al., 2012). These cell lines were maintained in minimum essential medium (MEM) supplemented with 10% fetal bovine serum, 100 units/mL penicillin G, […] streptomycin and selective antibiotics at 37° C. with 5% CO2 in a humidified incubator. Tissue culture medium and antibiotics were obtained from Invitrogen Corporation (Carlsbad, Calif.), unless otherwise stated. Fetal bovine serum was obtained from Gemini Bio-Products (Woodland, Calif.).
Functional properties of compounds at nAChRs expressed in the transfected cells were measured using ^86Rb^+ efflux assays as described previously (Xiao et al., 1998, 2001). In brief, cells were plated into 24-well plates coated with poly-D-lysine. The plated cells were grown at 37° C. for 18 to 24 hour to reach 85-95% confluence. […] Radioactivity of assay samples and lysates was measured by liquid scintillation counting. Total loading (cpm) was calculated as the sum of the assay sample and the lysate of each well, and the amount of ^86Rb^+ efflux was expressed as a percentage of ^86Rb^+ loaded. […] IC50 values were determined by nonlinear least-squares regression analyses (GraphPad. San Diego, Calif.).

Structure (SMILES): CNC1(C)C2CCC(C2)C1(C)C (stereo not shown) [Mecamylamine, Mecamylamine HCl, reference compound]
- IC50: 3.7 ± 1.2 µM

Where a name gives a salt, the structure may show the parent alone.
